According to ChEMBL document CHEMBL1134281, “Monosaccharide-linked inhibitors of O(6)-methylguanine-DNA methyltransferase (MGMT): synthesis, molecular modeling, and structure-activity relationships” (J Med Chem, 2001):

Molecular target: T1, Methylated-DNA--protein-cysteine methyltransferase (Homo sapiens, UniProt P16455)
T1 sequence (P16455 whole entry): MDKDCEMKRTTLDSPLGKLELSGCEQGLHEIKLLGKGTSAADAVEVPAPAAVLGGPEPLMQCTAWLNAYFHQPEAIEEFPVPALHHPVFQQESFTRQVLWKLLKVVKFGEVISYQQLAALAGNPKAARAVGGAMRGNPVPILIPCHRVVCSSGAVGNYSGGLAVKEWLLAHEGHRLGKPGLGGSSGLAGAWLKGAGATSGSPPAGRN
Test: In vitro inhibition of MGMT using cell free extracts from HeLa S3 cells

For `Nc1nc(OCc2ccccc2)c2[nH]cnc2n1` [6-O-BENZYLGUANINE], the IC50 was 620 nM.
